Experimental data reported in US9518026B2, “5-aminopyrazole-4-carboxamide inhibitors of CDPK1 from T. gondii and C. parvum” (UNIVERSITY OF WASHINGTON THROUGH ITS CENTER FOR …, priority 2013, dated 2016).

Amino acid sequences for entries named in this document (tags omitted). A change or cut given only in a name is not applied to a line headed by its entry. Residues count along the entry.
UniProt A3FQ16, 1-538: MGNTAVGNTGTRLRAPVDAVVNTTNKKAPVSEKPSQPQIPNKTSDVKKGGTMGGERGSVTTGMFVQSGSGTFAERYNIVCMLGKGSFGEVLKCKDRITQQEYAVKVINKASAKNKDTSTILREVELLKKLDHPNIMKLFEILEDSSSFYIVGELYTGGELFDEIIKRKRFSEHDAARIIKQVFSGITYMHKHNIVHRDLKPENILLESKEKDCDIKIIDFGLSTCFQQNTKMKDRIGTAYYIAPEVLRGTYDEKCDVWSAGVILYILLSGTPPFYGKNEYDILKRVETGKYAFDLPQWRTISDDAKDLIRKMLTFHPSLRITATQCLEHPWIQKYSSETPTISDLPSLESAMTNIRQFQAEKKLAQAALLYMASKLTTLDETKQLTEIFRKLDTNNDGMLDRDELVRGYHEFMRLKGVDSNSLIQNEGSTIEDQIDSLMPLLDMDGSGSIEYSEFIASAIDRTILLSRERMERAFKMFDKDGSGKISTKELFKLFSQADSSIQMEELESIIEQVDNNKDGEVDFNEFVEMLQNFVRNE
UniProt P12931: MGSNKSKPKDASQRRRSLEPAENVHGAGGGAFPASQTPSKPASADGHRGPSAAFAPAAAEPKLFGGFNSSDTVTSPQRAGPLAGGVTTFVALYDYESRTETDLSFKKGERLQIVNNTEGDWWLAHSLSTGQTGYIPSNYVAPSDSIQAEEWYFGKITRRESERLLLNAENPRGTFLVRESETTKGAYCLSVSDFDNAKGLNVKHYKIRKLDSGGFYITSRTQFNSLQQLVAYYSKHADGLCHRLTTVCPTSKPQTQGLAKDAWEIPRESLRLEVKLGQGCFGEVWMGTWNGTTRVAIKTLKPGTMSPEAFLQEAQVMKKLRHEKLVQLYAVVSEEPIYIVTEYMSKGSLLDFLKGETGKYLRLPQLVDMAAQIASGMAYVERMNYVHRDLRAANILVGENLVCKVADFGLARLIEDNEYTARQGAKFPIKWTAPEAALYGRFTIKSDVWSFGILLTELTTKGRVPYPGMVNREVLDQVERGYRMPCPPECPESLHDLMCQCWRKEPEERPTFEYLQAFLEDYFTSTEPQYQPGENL
UniProt Q9UM73, 19-1620, species assumed: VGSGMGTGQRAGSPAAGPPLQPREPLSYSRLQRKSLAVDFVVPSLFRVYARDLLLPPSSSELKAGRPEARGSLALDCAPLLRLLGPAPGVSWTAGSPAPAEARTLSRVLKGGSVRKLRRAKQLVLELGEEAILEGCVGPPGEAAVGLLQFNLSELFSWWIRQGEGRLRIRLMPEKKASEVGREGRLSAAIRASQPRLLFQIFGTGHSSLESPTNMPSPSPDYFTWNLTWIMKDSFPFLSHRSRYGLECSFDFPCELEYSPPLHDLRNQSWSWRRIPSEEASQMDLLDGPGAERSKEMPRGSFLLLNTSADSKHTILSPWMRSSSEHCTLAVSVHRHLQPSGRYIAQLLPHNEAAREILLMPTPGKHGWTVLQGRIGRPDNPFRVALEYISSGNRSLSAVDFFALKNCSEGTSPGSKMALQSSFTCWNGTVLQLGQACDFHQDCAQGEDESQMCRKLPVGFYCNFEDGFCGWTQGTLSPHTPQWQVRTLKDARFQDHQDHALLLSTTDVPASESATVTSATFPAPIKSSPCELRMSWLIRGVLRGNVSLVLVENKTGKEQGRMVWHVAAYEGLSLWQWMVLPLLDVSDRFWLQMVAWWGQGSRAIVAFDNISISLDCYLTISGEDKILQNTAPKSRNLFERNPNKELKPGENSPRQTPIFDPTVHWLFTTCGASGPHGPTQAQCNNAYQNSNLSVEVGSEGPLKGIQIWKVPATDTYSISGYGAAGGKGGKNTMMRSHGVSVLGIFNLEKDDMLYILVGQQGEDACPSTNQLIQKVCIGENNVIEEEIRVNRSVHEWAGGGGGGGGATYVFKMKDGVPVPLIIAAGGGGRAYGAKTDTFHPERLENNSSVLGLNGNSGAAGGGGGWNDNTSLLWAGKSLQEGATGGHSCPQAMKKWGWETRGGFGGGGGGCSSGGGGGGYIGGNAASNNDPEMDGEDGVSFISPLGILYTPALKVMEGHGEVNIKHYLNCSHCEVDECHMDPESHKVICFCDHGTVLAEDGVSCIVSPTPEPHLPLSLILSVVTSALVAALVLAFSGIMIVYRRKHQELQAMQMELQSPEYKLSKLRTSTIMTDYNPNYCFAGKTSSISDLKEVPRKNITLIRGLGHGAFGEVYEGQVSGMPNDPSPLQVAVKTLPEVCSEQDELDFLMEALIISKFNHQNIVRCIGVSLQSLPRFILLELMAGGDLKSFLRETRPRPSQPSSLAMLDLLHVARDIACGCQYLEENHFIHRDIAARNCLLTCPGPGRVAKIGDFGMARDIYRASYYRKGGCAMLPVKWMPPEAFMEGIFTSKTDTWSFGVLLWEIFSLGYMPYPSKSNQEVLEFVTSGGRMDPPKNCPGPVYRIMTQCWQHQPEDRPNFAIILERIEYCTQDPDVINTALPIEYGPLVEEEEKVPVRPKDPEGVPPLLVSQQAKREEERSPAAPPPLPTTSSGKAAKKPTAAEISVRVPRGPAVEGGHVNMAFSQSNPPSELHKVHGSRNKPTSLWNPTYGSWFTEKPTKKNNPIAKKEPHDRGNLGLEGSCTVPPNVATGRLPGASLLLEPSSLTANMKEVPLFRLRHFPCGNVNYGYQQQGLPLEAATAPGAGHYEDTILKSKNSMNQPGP
UniProt P28482, whole entry, looked up, species assumed: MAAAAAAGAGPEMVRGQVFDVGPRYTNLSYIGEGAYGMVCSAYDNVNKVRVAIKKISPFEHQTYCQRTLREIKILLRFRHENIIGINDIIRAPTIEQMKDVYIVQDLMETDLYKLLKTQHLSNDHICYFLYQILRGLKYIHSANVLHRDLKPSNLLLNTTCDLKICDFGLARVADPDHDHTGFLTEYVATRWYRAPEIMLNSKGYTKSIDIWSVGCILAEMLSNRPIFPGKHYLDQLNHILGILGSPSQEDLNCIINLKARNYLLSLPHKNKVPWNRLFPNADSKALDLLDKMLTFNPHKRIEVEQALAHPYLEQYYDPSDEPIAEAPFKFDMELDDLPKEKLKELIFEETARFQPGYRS

Key:
CpCDPK1 = CpCDPK1 (Cryptosporidium parvum (strain Iowa II), UniProt A3FQ16); assay: biochemical; conditions: Table 1; KinaseGlo, Syntide 2 peptide substrate
Src = Src (Homo sapiens (Human), UniProt P12931); assay: biochemical; conditions: Enzyme Inhibition (IC50, μM) SrcKD, Table 4
ALK = ALK (Homo sapiens (Human), UniProt Q9UM73); assay: Kinase panel selectivity: ALK; format: biochemical
Erk2 = Erk2 (Homo sapiens (Human), UniProt P28482); assay: Kinase panel selectivity: Erk2; format: biochemical

Structure (SMILES) | IC50 (CpCDPK1) | further results
Cn1c(N)nc2cc(-c3nn(C(C)(C)C)c(N)c3C(N)=O)ccc21 [Compound 33, 5-amino-3-(2-amino-1-methyl-1H-benzo[d]imidazol-5-yl)-1-(tert-butyl)-1H-pyrazole-4-carboxamide] | 990 nM | 
Cc1ccc2cc(-c3nn(C(C)(C)C)c(N)c3C(N)=O)cnc2c1 [Compound 1544, 5-amino-1-tert-butyl-3-(7-methylquinolin-3-yl)-1H-pyrazole-4-carboxamide] | 11 nM | 
Cn1nc(N)c2ccc(-c3nn(C(C)(C)C)c(N)c3C(N)=O)cc21 [Compound 29, 3-(3-amino-1-methyl-1H-indazol-6-yl)-1-(tert-butyl)-1H-pyrazole-4-carboxamide] | 200 nM | 
CC(C)COc1ccc2cc(-c3nn(C(C)(C)C)c(N)c3C(N)=O)cnc2c1 [Compound 1588, 5-amino-1-(tert-butyl)-3-(7-isobutoxyquinolin-3-yl)-1H-pyrazole-4-carboxamide] | 52 nM | 
CCOc1ccc2cc(-c3nn(C(C)(C)C)c(N)c3C(N)=O)cnc2c1 [Compound 39, 5-amino-1-(tert-butyl)-3-(7-ethoxyquinolin-3-yl)-1H-pyrazole-4-carboxamide] |  | IC50 (Src): > 10 µM; IC50 (ALK): > 10000 nM; IC50 (Erk2): > 10000 nM
CCOc1ccc2cc(-c3nn(CC4CCN(C)CC4)c4ncnc(N)c34)ccc2c1 [Compound 9, 3-(6-ethoxynaphthalen-2-yl)-1-((1-methylpiperidin-4-yl)methyl)-1H-pyrazolo[3,4-d]pyrimidin-4-amine, reference compound] | 1 nM | 
NC(=O)c1c(-c2cnc3cc(OC4CCC4)ccc3c2)nn(C2CCC2)c1N [Compound 1657, 5-amino-3-(7-cyclobutoxyquinolin-3-yl)-1-cyclobutyl-1H-pyrazole-4-carboxamide] | 5 nM | 
CCOc1ccc2cc(-c3nn(C(C)CCO)c(N)c3C(N)=O)cnc2c1 (stereo not drawn) [Compound 1608, 5-amino-3-(7-ethoxyquinolin-3-yl)-1-(4-hydroxybutan-2-yl)-1H-pyrazole-4-carboxamide] | 5 nM | 
Cc1oc2ccccc2c1-c1nn(C(C)(C)C)c(N)c1C(N)=O [Compound 27, 5-amino-1-(tert-butyl)-3-(2-methylbenzofuran-3-yl)-1H-pyrazole-4-carboxamide] | 2300 nM | 
NC(=O)c1c(-c2ccc3nc(OC4CCC4)ccc3c2)nn(C2CCC2)c1N [Compound 1656, 5-amino-3-(2-cyclobutoxyquinolin-6-yl)-1-cyclobutyl-1H-pyrazole-4-carboxamide] | 3 nM | 
